The chains behind the UniProt entries cited, without tags or fusion partners.
UniProt P97612, whole entry: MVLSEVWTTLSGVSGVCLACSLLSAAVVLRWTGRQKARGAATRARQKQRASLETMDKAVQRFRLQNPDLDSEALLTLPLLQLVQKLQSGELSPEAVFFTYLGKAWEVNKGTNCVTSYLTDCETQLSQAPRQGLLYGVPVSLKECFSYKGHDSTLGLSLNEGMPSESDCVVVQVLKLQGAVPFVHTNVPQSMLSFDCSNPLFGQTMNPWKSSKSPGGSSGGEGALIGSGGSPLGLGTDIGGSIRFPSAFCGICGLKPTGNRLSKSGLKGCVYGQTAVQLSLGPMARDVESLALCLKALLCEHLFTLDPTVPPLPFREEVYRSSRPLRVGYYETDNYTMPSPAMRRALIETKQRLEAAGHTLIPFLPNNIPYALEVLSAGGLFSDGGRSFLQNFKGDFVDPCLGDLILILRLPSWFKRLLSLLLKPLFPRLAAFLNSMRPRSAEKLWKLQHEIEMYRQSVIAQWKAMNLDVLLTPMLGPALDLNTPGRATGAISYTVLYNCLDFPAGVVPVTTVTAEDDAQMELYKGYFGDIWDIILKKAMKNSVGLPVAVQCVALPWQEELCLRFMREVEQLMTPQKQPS

According to publication PMC3606911 (2012):

Molecular target: FAAH (Rattus norvegicus, UniProt P97612)
Test: FAAH assay: hydrolysis of [3H]AEA by rat brain homogenates
Settings: for Vmax app of AEA hydrolysis: AEA 0.3–3 μM

## Cc1cccnc1NC(=O)CNC(=O)C(C)c1ccc(CC(C)C)cc1 (stereo not shown) [Compound 9, 2-(4-Isobutylphenyl)-N-(2-(3-methylpyridin-2-ylamino)-2-oxoethyl)propanamide]
  time-dependency of FAAH inhibition (preincubation time): did not show time-dependent inhibition
12 μM preincubated 60 min at 37 °C, diluted 20-fold
  reversibility of FAAH inhibition (dilution experiments): fully reversible
Higher number = increased FAAH inhibitory potency relative to COX-1 potency
  FAAH/COX-1 potency ratio, ratio for 1 set to unity: ~ 60
In the presence of 3 of 9
  Vmax app of AEA hydrolysis: 2.42 nmol.mg protein^−1.min^−1
In the presence of 5 of 9
  Vmax app of AEA hydrolysis: 2.40 nmol.mg protein^−1.min^−1
Rat brain AEA hydrolysis
  mode of inhibition of FAAH: competitive mode of inhibition; also recorded: competitive inhibitor
Solvent EtOH
  Max inhibition %: 100%

“Also recorded” adds a separate entry of the source.
